Values of other authors, collected in patent US11717549B2, “Steviol glycoside solubility enhancers” (CARGILL, INCORPORATED, priority 2017, dated 2023).

Details: temperature 25 ° C.; cited from earlier work

In the case of `O=C(O)Cc1cc(O)ccc1O` [2,5-hydroxybenzeneacetic acid], the “solubility (ppm)” value is listed as 3.15E+05 ppm.
